Experiment: In vitro inhibition of inducible vascular cell adhesion molecule-1 (VCAM-1) expression in Human aortic endothelial cells (HAEC)

## C=CS(=O)(=O)C=C
  IC50: 5 µM
